Values of other authors as cited in publication PMC6798786 (Brain Communications, 2019).
Where two headings read alike, the source gives them in different places.

Amino acid sequences for entries named in this document (tags omitted). Residues count along the entry.
UniProt P41595, whole entry: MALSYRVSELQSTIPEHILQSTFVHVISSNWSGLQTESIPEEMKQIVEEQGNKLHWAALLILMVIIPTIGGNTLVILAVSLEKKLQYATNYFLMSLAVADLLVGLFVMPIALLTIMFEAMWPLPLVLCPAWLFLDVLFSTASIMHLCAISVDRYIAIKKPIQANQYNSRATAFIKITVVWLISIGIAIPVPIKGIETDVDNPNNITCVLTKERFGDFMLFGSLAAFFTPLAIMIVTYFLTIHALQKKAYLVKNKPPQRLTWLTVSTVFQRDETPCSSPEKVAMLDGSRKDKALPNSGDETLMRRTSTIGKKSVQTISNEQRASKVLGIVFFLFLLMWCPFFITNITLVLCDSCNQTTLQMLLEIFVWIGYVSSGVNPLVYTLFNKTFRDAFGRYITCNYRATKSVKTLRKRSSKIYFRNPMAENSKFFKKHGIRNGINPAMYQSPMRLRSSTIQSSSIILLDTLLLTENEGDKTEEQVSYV
UniProt P28335, 33-458: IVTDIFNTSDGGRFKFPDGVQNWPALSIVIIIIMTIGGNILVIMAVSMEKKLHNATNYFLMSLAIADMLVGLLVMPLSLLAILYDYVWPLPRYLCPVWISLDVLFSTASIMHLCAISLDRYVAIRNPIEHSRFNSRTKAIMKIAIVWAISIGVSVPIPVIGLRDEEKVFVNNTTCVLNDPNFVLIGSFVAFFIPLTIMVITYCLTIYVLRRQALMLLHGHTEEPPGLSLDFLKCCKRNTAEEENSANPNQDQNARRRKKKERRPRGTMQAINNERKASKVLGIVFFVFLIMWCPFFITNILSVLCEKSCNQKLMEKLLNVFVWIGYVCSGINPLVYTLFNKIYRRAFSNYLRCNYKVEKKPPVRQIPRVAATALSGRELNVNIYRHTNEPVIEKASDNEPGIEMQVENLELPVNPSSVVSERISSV

What was measured:
[1] = molecular target: human 5-HT2BR (Homo sapiens, UniProt P41595)
[2] = molecular target: human 5-HT2CR (Homo sapiens, UniProt P28335); details: read-out: 5-HT2CR (nM), Table S3; commercially available compounds known to bind 5-HT2BR; ref Roth et al., 2000; cited from earlier work

SMILES | Ki ([1]; commercially available compounds known to bind 5-HT2BR; ref Roth et al., 2000; read-out: 5-HT2BR (nM), Table S3; cited from earlier work) | Ki ([1]; read-out: 5-HT2BR (nM), Table S3; commercially available compounds known to bind 5-HT2BR; ref Roth et al., 2000; cited from earlier work) | Ki [2]
CC(N)Cc1c[nH]c2ccc(OCc3cccs3)cc12 (stereo not drawn) | 3.2 nM | – | –
Cl.Clc1cccc(N2CCNCC2)c1 | – | 30.3 nM | 13 nM
